Target: Kir1.1 (ROMK1) (Homo sapiens (Human), UniProt P48048)
Experiment: Electrophysiology Assay (whole cell voltage clamp, IonWorks Quattro)
Type: cell-based
Conditions: Chinese hamster ovary cells stably expressing Kir1.1; block at voltage step to 0 mV, 6 minutes compound incubation; read-out: EP Assay IC50
Source text: Several assays may be used to measure functional inhibition of the ROMK channel by compounds of the instant invention. One assay that can be used is an electrophysiology assay that measures the electrical current that is generated as potassium permeates through the channel. Another ROMK functional assay makes use of the ability of thallium to permeate through open ROMK channels and increase the fluorescence of a dye previously loaded into the cells. Under control conditions, cells loaded with dye and exposed to thallium-containing medium display a time-dependent increase in fluorescence, the rate of which depends on number of functional channels. When cells are incubated in the presence of a channel inhibitor, the increase in fluorescence is attenuated in a concentration-dependent manner, and IC50 values of inhibition by compounds can be accurately determined. This assay has been established with cell lines expressing either human, or rat ROMK channels, and operates in 384-well format. […]
Voltage protocols and current recordings were performed using the IonWorks® HT software/hardware system. […] Current amplitudes were measured using the IonWorks® software. To assess compound potency, the fractional block during the voltage step to 0 mV was calculated in Microsoft® Excel (Microsoft, Redmond, Calif.), and dose-response curves were fitted with Igor Pro 4.0 (WaveMetrics, Lake Oswego, Oreg.). […]

Amino acid sequences for entries named in this document (tags omitted).
UniProt P48048, whole entry, species assumed: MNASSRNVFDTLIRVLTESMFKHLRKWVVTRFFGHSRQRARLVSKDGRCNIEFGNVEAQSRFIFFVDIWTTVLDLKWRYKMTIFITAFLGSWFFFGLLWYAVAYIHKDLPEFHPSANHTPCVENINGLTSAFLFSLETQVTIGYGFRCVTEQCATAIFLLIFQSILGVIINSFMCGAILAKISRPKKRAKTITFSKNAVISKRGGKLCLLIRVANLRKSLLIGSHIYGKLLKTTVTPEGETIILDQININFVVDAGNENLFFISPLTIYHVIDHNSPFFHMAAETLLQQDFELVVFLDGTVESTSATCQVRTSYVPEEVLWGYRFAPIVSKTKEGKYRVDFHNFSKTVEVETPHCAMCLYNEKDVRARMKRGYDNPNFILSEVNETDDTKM

SMILES | IC50
Cc1c([C@@H](O)CN2CC3CCN(C[C@H](O)c4ccc5c(c4C)COC5=O)C3C2)ccc2c1COC2=O (single isomer, unassigned) [Example 4A] | 120 nM
Cc1c([C@@H](O)CN2CC3CCN(C[C@H](O)c4ccc5c(c4C)COC5=O)C3C2)ccc2c1COC2=O (single isomer, unassigned) [Example 4B] | 117 nM
